Data as given in PubChem BioAssay AID540277 (National Center for Advancing Translational Sciences (NCATS), 2011).
Several values for one entry are separate records, joined by “and”; a condition that tells them apart may be missing. Equal entries are not always repeated. Some of the results follow. Inconclusive results are not listed. Activity calls are given as the source filed them. Rule as the data show it: active = potentiation above about 80%; inconclusive = between about 30% and that limit; inactive = weaker than that.

Chains of the proteins cited; added tags and fusions are not shown.
UniProt Q8NER1, whole entry: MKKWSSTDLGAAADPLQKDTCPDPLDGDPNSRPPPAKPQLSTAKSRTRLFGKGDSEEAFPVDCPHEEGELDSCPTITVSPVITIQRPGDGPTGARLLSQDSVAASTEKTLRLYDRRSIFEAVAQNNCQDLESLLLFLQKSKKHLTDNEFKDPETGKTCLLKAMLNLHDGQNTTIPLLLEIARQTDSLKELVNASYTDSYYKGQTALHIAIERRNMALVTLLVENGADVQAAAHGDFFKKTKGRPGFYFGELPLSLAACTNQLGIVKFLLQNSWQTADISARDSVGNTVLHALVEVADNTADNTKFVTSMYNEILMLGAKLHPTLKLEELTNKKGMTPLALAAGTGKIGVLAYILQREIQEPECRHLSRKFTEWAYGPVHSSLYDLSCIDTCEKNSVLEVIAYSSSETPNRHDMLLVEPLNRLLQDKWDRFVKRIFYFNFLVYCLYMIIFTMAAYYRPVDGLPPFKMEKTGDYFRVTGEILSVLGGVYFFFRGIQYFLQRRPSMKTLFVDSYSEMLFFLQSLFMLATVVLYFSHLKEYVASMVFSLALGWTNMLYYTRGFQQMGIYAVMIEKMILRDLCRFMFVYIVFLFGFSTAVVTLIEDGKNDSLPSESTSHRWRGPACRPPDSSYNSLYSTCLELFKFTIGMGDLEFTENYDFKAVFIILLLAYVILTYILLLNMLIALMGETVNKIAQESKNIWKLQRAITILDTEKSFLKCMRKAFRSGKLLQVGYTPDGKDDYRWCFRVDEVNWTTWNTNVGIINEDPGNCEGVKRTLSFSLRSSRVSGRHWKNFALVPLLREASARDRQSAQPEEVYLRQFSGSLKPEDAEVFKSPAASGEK

Target: Transient receptor potential cation channel subfamily V member 1 (Homo sapiens) (UniProt Q8NER1)
Assay: HTS Assay for Compounds that Act as Potentiators of the Vanilloid Receptor 1; also: 0% is about no effect
Conditions: TRPV1-expressing cells, Fluo-8 calcium influx, capsaicin EC20 potentiation; at 8.33 µM; hits give high values
Excerpt: The transient receptor potential ion channel, family V, number 1, (TRPV1) is one of the most important molecular transducers of painful stimuli and a potential target for analgesic drug development. Although recent clinical trials with orthosteric antagonists have not produced a successful drug because of a hyperthermia side effect and their tendency to block thermal noxious pain, this ion channel is undeniably well placed in the pain pathway, and the idea of blocking pain signals before they enter the CNS is an excellent concept and of proven efficacy when TRPV1 agonists are used. We propose a new approach involving allosteric modulation to impose an activity-dependent constraint within the context of inflammation and tissue damage that would alter the responsiveness of the channel in a way that an orthosteric vanilloid antagonist cannot achieve. We believe that the allosteric modulator approach has not been explored for this target. The main goal of this proposal is to identify additional, new, potent allosteric modulators of TRPV1 that can be used to investigate TRPV1 function. Our recent report provides evidence of proof of concept, but the compounds are just at the edge of utility in terms of potency. […] The question of whether they can be used as analgesic agents is complex, but if suitable compounds are identified then testing for analgesic properties will be conducted. NIH Chemical Genomics Center [NCGC] NIH Molecular Libraries Probe Centers Network [MLPCN] MLPCN Grant: MH089480-1A1 Assay Submitter (PI): Michael Iadarola, National Institute of Dental and Cranofacial Research
Upon TRPV1 activation in TRPV1 cells, the channel opens and extracellular cations flow through the channel into the cytosol. A calcium binding dye (Fluo-8) becomes fluorescent when bound to calcium. This dye is pre-loaded into cells and is used as a marker for calcium influx. The amount of accumulated calcium is precisely quantified using the FDSS kinetic reader and the calcium dye. For the HTS assay, freshly prepared cells are plated at a density of 2000/well in 3 ul medium in 1536-well plates and cultured overnight at 35.5C. Cells will be loaded with 1 ul of the homogeneous calcium dye (ABD Bioquest) at room temperature for 40 to 90 minutes. Plates will be loaded into the FDSS kinetic reader and a 1 sec / cycle for 10 second baseline signal will be measured. Compound library will then be added with a pintool at 23 nl and measured kinetically for 3 minutes. This portion of the read is considered the agonist portion of the screen. Following the 3 minutes of incubation, an on board pipettor will deliver 1 ul of capsaicin for a final concentration equal to the EC20. Signal will be measured kinetically for an additional 2 minutes. This portion of the read is considered the allosteric enhancer portion of the screen. The FDSS reader has a standard filter set capable of measuring calcium bound Fluo-8 (ex=480 and em=520 nm).

| SMILES | potentiation |
| --- | --- |
| CCCCOc1ccc(C(=O)NCC2(N3CCCCC3)CCCCC2)cc1OC | inactive: -7.13% |
| CCOC(=O)Nc1ccc([As](=O)(O)O)c(O)c1 | inactive: -2.45% |
| O=[N+]([O-])c1ccc(Nc2ccc(Oc3ccc([N+](=O)[O-])cc3[N+](=O)[O-])cc2)c([N+](=O)[O-])c1 | inactive: -5.98% |
| CP(=O)(Nc1ccccc1Br)Oc1ccccc1 (stereo not given) | inactive: 11% |
| COc1ccccc1OP(C)(=O)Nc1ccccc1 (stereo not given) | inactive: 1.47% |
| O=P(Nc1ccccn1)(c1cccc2ccccc12)c1cccc2ccccc12 | inactive: -2% |
| Cc1cc(SC(NC=O)C(Cl)(Cl)Cl)ncn1 (stereo not given) | inactive: 1.95% |
| CCOC(=O)Nc1cccc([As](=O)(O)O)c1 | inactive: -10.1% |
| CP(=S)(Nn1cnnc1)Oc1ccccc1 (stereo not given) | inactive: -5.13% |
| O=C(Nc1cc([As](=O)(O)O)ccc1O)c1ccccc1 | inactive: 21.4% |
| CCOC(=O)c1ccc(NP(C)(=O)Oc2ccc(Cl)cc2)cc1 (stereo not given) | inactive: -5.22% |
| CP(=O)(OC12CC3CC(CC(C3)C1)C2)OC12CC3CC(CC(C3)C1)C2 | inactive: -10.2% |
| O=[N+]([O-])c1cccc(NC2=NCC(CBr)S2)c1 (stereo not given) | inactive: 12.5% |
| O=C(O)CNc1ccc([As](=O)(O)O)cc1 | inactive: 23% |
| CC(C)(C)C(=O)NC(Sc1ccncn1)C(Cl)(Cl)Cl (stereo not given) | inactive: -7.89% |
| O=[N+]([O-])c1ncn(CCn2ncnc2[N+](=O)[O-])n1 | inactive: 2.37% |
| O=C(OCCCN1CCCC1)C(O)(c1ccccc1)C1CCCCC1 (stereo not given) | inactive: -6.46% |
| O=[N+]([O-])c1cccc2n[nH]nc12 | inactive: 0.0815% |
| CC(=O)N1C2C3N(C(C)=O)C1C1N(C(C)=O)C(C(N1C(C)=O)N3C(C)=O)N2C(C)=O | inactive: 0.747% |
| COc1ccccc1OP(C)(=O)Nc1c(C)n(C)n(-c2ccccc2)c1=O (stereo not given) | inactive: 13.1% |
| CCc1ccc(OP(C)(=O)Nc2cccnc2)cc1 (stereo not given) | inactive: -14.4% |
| CCc1nc2c(n1)c1c(non1O)c1c2no[n+]1[O-] | inactive: 3.99% |
| O=[N+]([O-])c1cc([N+](=O)[O-])c(CCNc2ccccc2)c([N+](=O)[O-])c1 | inactive: 4.65% |
| CP(=O)(Oc1ccccc1)N1CCOC1=O (stereo not given) | inactive: 1.75% |
| Cc1ccc(NP(=O)(Oc2ccccc2)Oc2ccccc2)nc1 | inactive: -2.69% |

| SMILES | potentiation |
| --- | --- |
| COc1ccc(OP(C)(=O)Nc2ccc(Br)cc2)cc1 (stereo not given) | inactive: 1.64% |
| COc1ccc(C2=NCC(CBr)S2)cc1 (stereo not given) | inactive: 29.4% |
| CCN(CC)CC(O)COC(=O)C(O)(c1ccccc1)C1CCCCC1 (stereo not given) | inactive: -0.622% |
| CN(C)C(=O)OCCc1n(C)cc[n+]1C | inactive: 11.3% |
| CN(C)C(=O)c1c([N+](=O)[O-])cc([N+](=O)[O-])cc1[N+](=O)[O-] | inactive: -7.29% |
| CC(C)=N/N=C(\N)N[N+](=O)[O-] | inactive: 6.04% |
| CC1CCN(C(=O)Oc2c(Cl)cc(Cl)c3cccnc23)CC1 | inactive: 24.4% |
| C[N+]1=C2C=CC=CC=C2SC12C([N+](=O)[O-])=CC([N+](=O)[O-])=C[C-]2[N+](=O)[O-] (stereo not given) | inactive: -8.81% |
| CC(C)(C)c1ccc(OP(C)(=O)O)cc1 | inactive: 1.41% |
| Nc1ccc([As](=O)(O)c2ccc(N)cc2)cc1 | inactive: 10.8% |
| CP(=O)(Nc1ccc(Cl)cc1)Oc1ccc(F)cc1 (stereo not given) | inactive: -1.26% |
| CCN(/C(=N/P(=O)(N1CCOCC1)N1CCOCC1)N1CCOCC1)c1ccc(OC)cc1 | inactive: 3.04% |
| Cc1ccc(OP(=O)(Nc2nccs2)Oc2ccc(C)cc2)cc1 | inactive: 4.22% |
| COc1ccccc1OP(=O)(Nc1ccc(C)cn1)Oc1ccccc1OC | inactive: -14.2% |
| COc1ccc(OP(C)(=O)Nc2ccccn2)cc1 (stereo not given) | inactive: 17.7% |
| CN1CCCC(OC(=O)C(c2ccccc2)c2ccccc2)C1 (stereo not given) | inactive: 0.542% |
| Clc1ccc(Cl)c(NC2=NCC(CBr)S2)c1 (stereo not given) | inactive: -3.48% |
| CN(C)CCOC(=O)C(O)(c1ccccc1)C1CCCC1 (stereo not given) | inactive: 0.977% |
| NC(=O)c1cc([N+](=O)[O-])cc([N+](=O)[O-])c1N | inactive: 3.37% |
| Cc1ccc(N/C(=N/P(=O)(N2CCOCC2)N2CCOCC2)N2CCOCC2)cc1 | inactive: -2.34% |
| CN(C(=O)Cc1ccc(Cl)c(Cl)c1)[C@H]1CCCC[C@H]1N1CCCC1 | inactive: -4.19% |
| COc1ccccc1OP(C)(=O)Nc1ccc(Br)cc1 (stereo not given) | inactive: 12.1% |
| COc1ccccc1OP(C)(=O)Nc1ccc(C)cc1C (stereo not given) | inactive: -4.84% |
| CP(=O)(Nc1ccccn1)Oc1ccccc1 (stereo not given) | inactive: 1.82% |
| Cc1c(NP(C)(=O)Oc2ccc(C(C)C)cc2)c(=O)n(-c2ccccc2)n1C (stereo not given) | inactive: 1.14% |

| SMILES | potentiation |
| --- | --- |
| Nc1cc(N)c2nonc2c1[N+](=O)[O-] | inactive: -8.12% |
| O=[N+]([O-])c1cc([N+](=O)[O-])c(Nc2ccccn2)c([N+](=O)[O-])c1 | inactive: 6.74% |
| O=C(NC(Sc1ccncn1)C(Cl)(Cl)Cl)c1ccccc1 (stereo not given) | inactive: 14.4% |
| Cc1c2non([O-])c-2c(C)[n+](=O)[n+]1[O-] | inactive: -15.3% |
| Oc1ccccc1CNc1ccccn1 | inactive: -8.27% |
| COc1ccccc1OP(C)(=O)Nc1ccc(C)c(C)c1 (stereo not given) | inactive: -9.38% |
| Cc1ccc(NP(=O)(Oc2ccccc2F)Oc2ccccc2F)nc1 | inactive: -2.56% |
| Cc1cc(SC(NC(=O)c2ccc(F)cc2)C(Cl)(Cl)Cl)ncn1 (stereo not given) | inactive: -2.98% |
| CCOP(=O)(Nc1ccccc1)OCC | inactive: 8.55% and inactive: -18.7% |
| COc1ccc(OP(C)(=O)Nc2ccccc2Br)cc1 (stereo not given) | inactive: 17.7% |
| CC(=O)Nc1ccc([As](=O)(O)O)cc1 | inactive: 3.64% |
| O=C(O)c1ccccc1[As](=O)(O)O | inactive: 12.2% |
| O=P(Nc1nc2ccc(Cl)cc2s1)(c1ccccc1)c1ccccc1 | inactive: -13.1% |
| Cc1cc(C)cc(OP(C)(=O)Nc2cccc(C(F)(F)F)c2)c1 (stereo not given) | inactive: 0.867% |
| CCN(N=Nc1nonc1N)c1nonc1N | inactive: 8.71% |
| CP(=O)(Nc1ccc(Cl)cc1Cl)Oc1ccccc1 (stereo not given) | inactive: 9.08% |
| CP(=O)(OCCOc1ccccc1)OCCOc1ccccc1 | inactive: 10.5% |
| Nc1cccc2ccc([As](=O)(O)O)cc12 | inactive: -4.34% |
| Cc1nc2ccc3ccccc3c2o1.O=[N+]([O-])c1cc([N+](=O)[O-])c(O)c([N+](=O)[O-])c1 | inactive: 0.0997% |
| O=[N+]([O-])c1cc([N+](=O)[O-])c(CCN2CCOCC2)c([N+](=O)[O-])c1 | inactive: 7.83% |
| CCOC(=O)c1ccc(NP(C)(=O)Oc2ccc(F)cc2)cc1 (stereo not given) | inactive: -3.78% |
| COc1ccc(OP(C)(=O)Nc2ccc(SC(F)(F)F)cc2)cc1 (stereo not given) | inactive: -6.82% |
| CCNC(=S)/N=C(\N)N[N+](=O)[O-] | inactive: 1.14% |
| O=C(NC1CCS(=O)(=O)C1)NP(=S)(Oc1ccccc1)Oc1ccccc1 (stereo not given) | inactive: -1.56% |
| Cc1ccc(NP(=O)(Oc2cccc(C)c2)Oc2cccc(C)c2)nc1 | inactive: -29% |

| SMILES | potentiation |
| --- | --- |
| CCOC(=O)NC(Sc1ccccc1)C(Cl)(Cl)Cl (stereo not given) | inactive: 15.4% |
| c1ccc(-c2nn[nH]n2)c(-c2nn[nH]n2)c1 | inactive: 10.1% |
| CP(=O)(Nc1ccccc1)Oc1ccc(F)cc1 (stereo not given) | inactive: -9.84% |
| O=c1c2cc([N+](=O)[O-])ccc2[nH]c2c([N+](=O)[O-])cc([N+](=O)[O-])cc12 | inactive: -18.8% |
| CCCCCOc1ccc(NP(C)(=O)Oc2ccc(Cl)cc2Cl)cc1 (stereo not given) | inactive: -7.47% |
| CN(C)C(=O)Oc1noc2ccccc12 | inactive: -10.2% |
| Cc1ccccc1OP(=O)(Nc1ccccn1)Oc1ccccc1C | inactive: 3.41% |
| CC(=O)NC(SC(=S)N(CC(C)C)CC(C)C)C(Cl)(Cl)Cl (stereo not given) | inactive: 8.91% |
| Cc1ccc(OP(=O)(Nc2ccccn2)Oc2ccc(C)cc2)cc1 | inactive: -4.44% |
| COC(=O)c1cc2c(s1)N=C(c1ccccc1)N(C)P2(=O)N1CCOCC1 (stereo not given) | inactive: 0.687% |
| CCN(CC)CCCOC(=O)C(O)(c1ccccc1)C1CCCCC1 (stereo not given) | inactive: 0.385% |
| CCC(=O)N1C2C3N(C(=O)CC)C1C1N(C(=O)CC)C(C(N1C(=O)CC)N3C(=O)CC)N2C(=O)CC | inactive: 2.43% |
| O=C(OC1CN2CCC1CC2)c1ccccc1 (stereo not given) | inactive: 2.5% |
| CP(=O)(Nc1ccccc1F)Oc1ccccc1 (stereo not given) | inactive: 2.38% |
| CC(C)c1ccc(OP(C)(=O)Nc2ccc(SC(F)(F)F)cc2)cc1 (stereo not given) | inactive: 9.03% |
| CC(C)(C)C(=O)NC(Sc1ccccc1)C(Cl)(Cl)Cl (stereo not given) | inactive: -1.95% |
| CCOc1ccc(C2=NCC(CBr)S2)cc1 (stereo not given) | inactive: 5.29% |
| O=P1(Nc2nc3ccc(Cl)cc3s2)COc2ccccc2O1 (stereo not given) | inactive: 17.8% |
| CC(=O)Nc1ccc(Oc2c([N+](=O)[O-])cc([N+](=O)[O-])cc2[N+](=O)[O-])cc1 | inactive: -26.3% |
| CC(=O)Nc1ccc([As](=O)(O)O)c(O)c1 | inactive: -1.09% |
| CC(=O)c1ccc(N2CC2c2ccncc2)cc1 (stereo not given) | inactive: 11.8% |
| C[C@H]1OP(=O)(Oc2ccccc2)C[C@@H]2O[C@@H]21 (stereo not given in full) | inactive: 20.9% |
| C[C@@H]1C=CCP(=O)(Oc2ccccc2)O1 (stereo not given in full) | inactive: 0.45% |
| Cc1ccccc1CN(C)C(=O)COC(=O)C(O)(c1ccccc1)c1ccccc1 | inactive: 18.6% |
| O=C(OCCN1CCN(CCOCc2ccccc2)CC1)C(O)(c1ccccc1)c1ccccc1 | inactive: 3.79% |
